Reference: ChEMBL document CHEMBL5131445, “Optimization of a novel piperazinone series as potent selective peripheral covalent BTK inhibitors” (Bioorg Med Chem Lett, 2022)

By UniProt entry, the sequences of proteins in these tests, tags left out. Where a name states a change or a piece, a line headed by the entry shows the natural chain unless it says otherwise.
UniProt Q06187: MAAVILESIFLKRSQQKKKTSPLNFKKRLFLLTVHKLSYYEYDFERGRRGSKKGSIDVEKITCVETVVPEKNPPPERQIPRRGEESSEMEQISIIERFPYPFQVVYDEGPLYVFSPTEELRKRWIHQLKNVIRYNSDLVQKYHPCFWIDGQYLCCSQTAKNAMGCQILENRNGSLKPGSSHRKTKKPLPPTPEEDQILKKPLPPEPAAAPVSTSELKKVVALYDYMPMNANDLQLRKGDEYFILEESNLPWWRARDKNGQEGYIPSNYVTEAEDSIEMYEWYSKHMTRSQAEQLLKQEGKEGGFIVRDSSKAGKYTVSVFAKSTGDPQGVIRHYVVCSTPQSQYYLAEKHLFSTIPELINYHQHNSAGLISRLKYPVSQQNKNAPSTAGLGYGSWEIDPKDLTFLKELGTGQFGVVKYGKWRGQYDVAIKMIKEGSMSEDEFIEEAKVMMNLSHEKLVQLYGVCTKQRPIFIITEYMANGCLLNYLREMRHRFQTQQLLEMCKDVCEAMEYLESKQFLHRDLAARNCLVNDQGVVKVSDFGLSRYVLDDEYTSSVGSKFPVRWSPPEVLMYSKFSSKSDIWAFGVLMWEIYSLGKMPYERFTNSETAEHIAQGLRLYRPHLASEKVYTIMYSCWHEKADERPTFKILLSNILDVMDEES

Key:
[1] = biological target: T1, Tyrosine-protein kinase BTK (Homo sapiens, UniProt Q06187); test: Inhibition of BTK (unknown origin) assessed as log ratio of Kinact/Ki
[2] = biological target: T1, Tyrosine-protein kinase BTK; test: Inhibition of BTK (unknown origin) assessed as ratio of Kinact/Ki

With `C=CC(=O)N(C)CCOc1cnccc1-c1ccc(CN2CCN(CCC)CC2=O)c(C)c1` the log(ratio) [1] was 2.81.

Compound `C=CC(=O)N(C)CCOc1cnccc1-c1ccc(CN2CCN(C)CC2=O)c(C)c1` has a log(ratio) [1] of 1.42.

Work on `C=CC(=O)N(C)CCOc1c(-c2ccc(CN3CCN(CC(C)C)CC3=O)c(C)c2)ccnc1N` yielded a log(ratio) [1] of 3.64.

`C=CC(=O)N(C)CCOc1cncnc1-c1ccc(CN2CCN(CC(F)(F)F)CC2=O)c(C)c1` was tested, and the log(ratio) [1] was 2.46.

Compound `C=CC(=O)N(C)CCOc1cncnc1-c1ccc(CN2CCN(CC(C)(C)C)CC2=O)c(F)c1` has a log(ratio) [1] of 2.79.

`C=CC(=O)N(C)CCOc1cnccc1-c1ccc(CN2CCN(CC)CC2=O)c(C)c1` was tested, and the log(ratio) [1] was 2.48.

Work on `C=CC(=O)N(C)CCOc1cncnc1-c1ccc(CN2CCN(CC(C)C)CC2=O)c(C)c1` yielded a log(ratio) [1] of 3.36.

With `C=CC(=O)N(C)CCOc1cncnc1-c1ccc(CN2CCN(CC(C)(C)C)CC2=O)cc1` the log(ratio) [1] was 2.37.

`C=CC(=O)N(C)CCOc1cncnc1-c1ccc(CN2CCN(CC3(C)CC3)CC2=O)c(C)c1` showed a log(ratio) [1] of 2.26.

With `C=CC(=O)N(C)CCOc1cncnc1-c1ccc(CN2CCN(C3CCOC3)CC2=O)c(F)c1` (configuration not stated) the log(ratio) [1] was 1.75.

Work on `C=CC(=O)N(C)CCOc1cnccc1-c1ccc(CN2CCN(CC(C)C)CC2=O)c(C)c1` yielded a log(ratio) [1] of 3.2.

`C=CC(=O)N(C)CCOc1cnccc1-c1ccc(CN2CCN(C(C)C)CC2=O)c(C)c1` gave a log(ratio) [1] of 2.78.

For `C=CC(=O)N(C)CCOc1cncnc1-c1ccc(CN2CCN(CC3CCC3)CC2=O)c(C)c1`, the log(ratio) [1] was 3.07.

Compound `C=CC(=O)N(C)CCOc1cnccc1-c1ccc(CN2CCN(CC3CCC3)CC2=O)c(C)c1` has a log(ratio) [1] of 3.09.

For `C=CC(=O)N(C)CCOc1cncnc1-c1ccc(CN2CCN(CC(C)(C)C)CC2=O)c(C)c1`, the log(ratio) [1] was 2.22.

`C=CC(=O)N(C)CCOc1cnccc1-c1ccc(CN2CCN(CC(C)(C)C)CC2=O)c(C)c1` showed a Ratio [2] of 630 M⁻¹ s⁻¹ and a log(ratio) [1] of 2.79.
